PI4K2A inh – inhibitors of human PI4K2A; Q9BTU6; purified PI4K2A, ADP-Glo luminescence, 1 h; stronger effect = lower value; activity change, negative = inhibition, % at 76.9 µM; 420,000 compounds, 0.13% hits; in the data active = activity change below about -50%; inconclusive = mostly about -30% to -49%;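 note: -100% = wells without enzyme as full effect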
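ADP-Glo luminescence measured ADP generated by PI4K2A enzyme (4 ug/mL before mixing) with 1.2 mM PI substrate (pre-mix) and 300 microM ATP (pre-mix). Tris pH7.5 buffer with MgCl2, Triton X-100; 1 h reaction at ambient temperature.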
miR-21 reporter – raises the signal of a miR-21 reporter; HeLa miR-21 FLuc reporter, luciferase, 48 h; Potency, µM (highest dose often 38.3 µM), inactives show at the highest dose reporter change, positive = more light; 340,000 tested, under 10 active; active = well fitted rising curve with a large enough effect; inconclusive = small, poorly fitted or top-dose-only effect; inactive = no such curve, though single readings can be large or run the other way;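 note: % of control where 0% means no effect; miR-21 action dims this reporter so a rising signal means less miR-21 action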
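HeLa miR-21-FLuc reporter line, endogenous miR-21; 2000 cells/well in DMEM/10% FBS; compound titration up to ~40uM final, 48 h, 37 degree Celsius; luciferase detection reagent, 15 min lysis, CCD luminescence.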
Nrf2 activator – activators of Nrf2 (ARE) signaling; AREc32 ARE-luciferase reporter (MCF7-derived line), luminescence, 24 h; 410,000 compounds, 0.31% hits; Potency, µM (doses to about 46.1 µM), for the others: at the top dose activation, actives largely listed as activators; note: potency is the fitted concentration of half-maximal effect; % of control where 0% means no effect; nearly all actives have a fitted effect of over 65% in size
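AREc32 cells carrying an ARE-driven firefly luciferase reporter were seeded at 1000 cells/well in OPTI-MEM with 5% FBS, then exposed to compound for 24 hr at 37 deg C. Luminescence was read with Steady-Glo after 30 min at RT.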
Nrf2 block – blocks Nrf2 signaling; AID 504444; Potency, µM (highest dose often 46 µM), for inactives: top-dose activity change, negative = inhibition, usual class: inhibitors; A549 ARE-Fluc reporter, luciferase luminescence, 18-24 h; 360,000 compounds, 2.1% hits; note: potency is the fitted concentration of half-maximal effect; % is set by controls: 0 for no effect and ±100 for the full control effect; nearly all actives have a fitted effect of over 60% in size
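Concentration-response testing used A549 ARE_Fluc cells at 5000 cells/well. Following an 18-24 h compound incubation, viability was read by fluorescence (Ex 405/Em 525) and luciferase output by luminescence.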
GALK inhibitor – blocks human galactokinase activity; AID 1868; 270,000 compounds, 0.007% hits; Potency, µM (doses to about 57.5 µM), for the others: at the highest dose activity change, negative = inhibition, most hits filed as inhibitors; P51570; Purified GALK, Kinase-Glo residual ATP luminescence; note: potency is the fitted concentration of half-maximal effect; % is set by controls: 0 for no effect and ±100 for the full control effect
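Galactose (100 uM) and ATP (35 uM) were turned over by 5 nM GALK for 1 h at RT. Kinase-Glo Plus then converted the remaining ATP into a luminescent signal.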
A549 tox – kills or reduces viability of A549 cells in Nrf2 counter-screen | A549 ARE-Fluc cells, CellTiter-Fluor viability, 18-24 h | Potency, µM (titrated, usually from 46 µM), for the others: top-dose activity change, negative = cytotoxicity, hits mostly inhibitors | 390,000 compounds, 0.16% hits; note: potency is the fitted concentration of half-maximal effect; % is set by controls: 0 for no effect and ±100 for the full control effect
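A549 ARE_Fluc cells in 5% FBS OPTI-MEM were exposed to compounds in concentration-response for 18-24 h at 37 deg C. Viability was read by CellTiter-Fluor fluorescence (Ex 405/Em 525) after 30 min, before the luciferase read.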
An asterisk follows results filed as active; ? = inconclusive; . = not tested or not shown; [ ] = remark or other dose. Compounds with a hit are over-represented: about 2.2% of the library has one in this group of screens. Unless noted, calls come from the whole dose curve; as a rule, active = well fitted curve in the direction sought with a large enough effect; inconclusive = small, poorly fitted or top-dose-only effect, or another doubt; inactive = no such curve, though single readings can be large; an effect the other way counts as inactive or inconclusive.

Codes – A = PI4K2A inh; B = miR-21 reporter; C = Nrf2 activator; D = Nrf2 block; E = GALK inhibitor; F = A549 tox
1) Cc1c(C(=O)N2CCc3ccccc3C2)sc2nc(-c3ccccc3)cn12
  A = 7.1 | B = -19.2% | C = 2.8% | D = -11.9% | E = -0.6% | F = 2.9%[1.84 µM]

2) N#Cc1cccc(NC(=O)O[C@@H]2CC[C@@]34CCCN3C(=O)CCC[C@H]4C2)c1
  A = 4.1 | B = . | C = . | D = . | E = . | F = .

3) Cc1cc(C)c(C)c(S(=O)(=O)N2CCN(S(=O)(=O)c3ccc4c(c3)OCCO4)CC2)c1C
  A = . | B = . | C = . | D = -12.4% | E = . | F = 0.4%

4) COCCCNC(=O)C[C@H]1C[C@@]2(C(=O)OC)C(=C[C@H](C(C)(C)C)O[C@@H]2C)N(Cc2cccc3ccccc23)C1=O
  A = 2.0 | B = . | C = . | D = . | E = . | F = .

5) COCCCN1C(=O)[C@H](CC(=O)NCc2ccc(OC)c(OC)c2)[C@]2(C(=O)OC)CCCCC=C12
  A = 0.5 | B = . | C = . | D = . | E = . | F = .

6) Cc1cc(C)cc(NS(=O)(=O)c2ccc3c(c2)OCC(C(=O)N2CCCC2)O3)c1 (stereo unspecified)
  A = -4.2 | B = 6.4% | C = -0.9% | D = -22.8% | E = . | F = -10.7%

7) O=C(C1COc2cc(S(=O)(=O)Nc3ccc(Cl)cc3)ccc2O1)N1CCCC1 (stereo unspecified)
  A = 1.5 | B = 16.4% | C = -0.1% | D = 25.9µM* | E = . | F = -4.9%

8) O=C(N/N=C/c1cccnc1)c1cccc(NC(=O)c2ccc(Cl)cc2)c1
  A = 1.5 | B = 1.4% | C = -0.8% | D = 18.4µM* | E = 3.8% | F = 0.1%

9) Cc1sc2ncnc(N3CCC(C(=O)Nc4cc(S(C)(=O)=O)ccc4Cl)CC3)c2c1C
  A = 3.8 | B = . | C = -0.3% | D = 18.4µM* | E = . | F = -11.5%

10) COc1ccc(S(=O)(=O)N(C)C)cc1NC(=O)C1CCN(c2ncnc3sc(C)c(C)c23)CC1
  A = 2.5 | B = . | C = 6.3% | D = 11.6µM* | E = . | F = ?

The results go on:
Codes – A = PI4K2A inh; B = miR-21 reporter; C = Nrf2 activator; D = Nrf2 block; E = GALK inhibitor; F = A549 tox
11) CCOc1ccc(-n2c(SCC(=O)Nc3ccc(S(=O)(=O)Nc4cc(C)nc(C)n4)cc3)nnc2-c2ccc(OC)cc2)cc1
  A = 3.8 | B = . | C = . | D = . | E = . | F = .

12) CCS(=O)(=O)c1c(Nc2cc(C)ccc2C)sc(C(=O)c2ccccc2)c1N
  A = -0.4 | B = ? | C = 0.6% | D = 23.1µM* | E = . | F = -28.7%

13) N#CCCn1cc(CNCc2cccnc2)c(-c2ccccc2)n1
  A = . | B = . | C = . | D = 23.4% | E = . | F = 7.8%

14) COc1ccc(NC(=O)NC2CCN(S(=O)(=O)c3ccc(F)cc3)CC2)cc1OC
  A = 5.8 | B = . | C = . | D = . | E = . | F = .

15) O=C(CN(CCc1ccccc1)S(=O)(=O)c1ccccc1)NCc1ccc(Cl)cc1
  A = -0.2 | B = 16.5% | C = 0.2% | D = 20.6µM* | E = . | F = -13.1%

16) CC(C)COc1ccc(C(=O)Nc2sc3c(c2C(=O)O)CC(C)(C)OC3)cc1
  A = -0.3 | B = 21.8% | C = -0.1% | D = 5.8µM* | E = -16.3% | F = ?

17) CC1(C)Cc2c(sc(NC(=O)c3ccccc3)c2C(=O)O)CO1
  A = -13.7 | B = 17.5% | C = -0.3% | D = ? | E = 0.7% | F = -16.6%

18) Cc1ccc(NC(=S)NNC(=O)CSc2nnc(-c3ccc(C)cc3)n2C2CCCCC2)cc1
  A = 3.4 | B = . | C = . | D = . | E = . | F = .

19) Cn1c(NCc2ccccc2)cc(=O)n(C)c1=O
  A = 0.8 | B = -3.1% | C = 3.2% | D = 0.5% | E = -3.8% | F = 1.5%

20) Cn1c(CNc2ccccc2)cc(=O)n(C)c1=O
  A = -69.3* | B = -3.2% | C = 0.3% | D = -0.6% | E = 1.7% | F = -7.2%

Copied from the listing, 3 compounds:
Codes – A = PI4K2A inh; B = miR-21 reporter; C = Nrf2 activator; D = Nrf2 block; E = GALK inhibitor; F = A549 tox
18) Cc1ccc(NC(=S)NNC(=O)CSc2nnc(-c3ccc(C)cc3)n2C2CCCCC2)cc1
  A = 3.4 | B = . | C = . | D = . | E = . | F = .

19) Cn1c(NCc2ccccc2)cc(=O)n(C)c1=O
  A = 0.8 | B = -3.1% | C = 3.2% | D = 0.5% | E = -3.8% | F = 1.5%

20) Cn1c(CNc2ccccc2)cc(=O)n(C)c1=O
  A = -69.3* | B = -3.2% | C = 0.3% | D = -0.6% | E = 1.7% | F = -7.2%

Continued.
Codes – A = PI4K2A inh; B = miR-21 reporter; C = Nrf2 activator; D = Nrf2 block; E = GALK inhibitor; F = A549 tox
21) CCCCC(=O)N1c2ccccc2C(C)(c2ccccc2)CC1(C)C (stereo unspecified)
  A = 1.2 | B = 0.9% | C = -1.8% | D = 12.2% | E = . | F = 9.4%

22) Cc1ccc(C2(C)CC(C)(C)N(C(=O)CSc3nnc(C)s3)c3ccccc32)cc1 (stereo unspecified)
  A = 7.5 | B = 16.8% | C = -0.8% | D = 20.6µM* | E = 1.1% | F = ?

23) Cc1nnc(SCC(=O)N2c3ccccc3C(C)(c3ccccc3)CC2(C)C)s1 (stereo unspecified)
  A = 3.3 | B = 3.7% | C = 4.0% | D = 23.1µM* | E = 0.7% | F = ?

24) COc1ccc(C2Nc3ccccc3C(=O)N2Cc2ccccc2C)cc1COc1ccc(NC(C)=O)cc1 (stereo unspecified)
  A = . | B = . | C = . | D = ? | E = . | F = -8.7%

25) Cc1ccc(S(=O)(=O)CCC(=O)N(CCCN2CCOCC2)c2nc3ccccc3s2)cc1
  A = 1.0 | B = . | C = 12.6µM* | D = ? | E = . | F = 13.0%

26) O=C(CCS(=O)(=O)c1ccccc1)N(CCCN1CCOCC1)c1nc2ccccc2s1
  A = -3.5 | B = . | C = ? | D = 7.5% | E = . | F = -16.5%

27) Oc1ccc(C[C@H]2CN([C@@H](Cc3ccccc3)CN3CCCC3CN3C(=S)NC[C@@H]3Cc3ccccc3)C(=S)N2CC2CCCCC2)cc1 (stereo partly specified)
  A = 0.8 | B = . | C = -0.7% | D = . | E = . | F = .

28) Oc1ccc(C[C@H]2CNC(=S)N2CC2CCCN2C[C@H](Cc2ccc(O)cc2)N2C[C@H](Cc3ccccc3)N(CCc3ccccc3)C2=S)cc1 (stereo partly specified)
  A = 1.4 | B = . | C = 1.4% | D = 20.6µM* | E = . | F = -13.9%

29) CC(C)C[C@H]1CNC(=S)N1C[C@H]1CCCN1C[C@H](Cc1ccc(O)cc1)N1C[C@H](Cc2ccccc2)N(CCc2ccccc2)C1=S
  A = 2.5 | B = . | C = 2.5% | D = . | E = . | F = .

30) Oc1ccc(C[C@H]2CNC(=S)N2CC2CCCN2C[C@H](Cc2ccc(O)cc2)N2C[C@H](Cc3ccc(O)cc3)N(CC3CCCCC3)C2=S)cc1 (stereo partly specified)
  A = -0.6 | B = . | C = -3.3% | D = 13µM* | E = . | F = ?

Later entries:
Codes – A = PI4K2A inh; B = miR-21 reporter; C = Nrf2 activator; D = Nrf2 block; E = GALK inhibitor; F = A549 tox
31) CC(=O)N1CCc2c(sc3c2c(=O)n(CCc2ccccc2)c(=O)n3Cc2ccccc2C)C1
  A = -5.7 | B = 20.2% | C = 0.5% | D = 18.4µM* | E = . | F = -29.0%

32) COC(=O)/C=C/c1ccsc1NC(C)=O
  A = -2.5 | B = -2.5% | C = 12.6µM* | D = 17.8% | E = . | F = 1.1%

33) Cc1nc(NC(=O)c2ccco2)sc1C(=O)O
  A = -67.2* | B = -2.0% | C = 1.8% | D = ? | E = 27.1% | F = 0.8%

34) O=C(Nc1nc(-c2cccs2)cs1)c1ccco1
  A = -1.1 | B = -47.1% | C = 12.6µM* | D = ? | E = 15.9% | F = 6.3%

35) O=C(Nc1nc2c(F)cccc2s1)c1ccco1
  A = -4.3 | B = -18.1% | C = 7.08µM* | D = ? | E = . | F = 1.0%

36) COC(=O)c1sc(NC(=O)c2ccco2)nc1C
  A = -1.7 | B = -11.0% | C = ? | D = 22.2% | E = 6.5% | F = -6.4%

37) O=C(Nc1nc(-c2ccncc2)cs1)c1ccco1
  A = -24.3 | B = -26.6% | C = ? | D = 9.8% | E = 0.1% | F = -8.4%

38) COc1ccc(-c2noc(C3CCCN(C(=O)CCc4ccccc4)C3)n2)cc1 (stereo unspecified)
  A = 2.4 | B = -5.0% | C = -0.2% | D = ? | E = 0.0% | F = -7.0%

39) O=C(c1ccco1)N1CCCC(c2nc(-c3ccc(S(=O)(=O)NCc4ccccc4)cc3)no2)C1 (stereo unspecified)
  A = 7.1 | B = 24.0% | C = -0.7% | D = 10.3µM* | E = -0.6% | F = -10.9%[1.84 µM]

40) CCC(NC(=O)c1ccc2c(c1)c(C)c(C)n2Cc1ccc(-c2ccccc2C#N)cc1)c1ccccc1 (stereo unspecified)
  A = 1.0 | B = . | C = . | D = . | E = . | F = .

41) CCOC(=O)N1CCC(N(C(=O)Nc2ccc(Cl)c(Cl)c2)C(C)CC)CC1 (stereo unspecified)
  A = -2.9 | B = 5.3% | C = 4.4% | D = 14.6µM* | E = 0.5% | F = ?
